# Test results as given in PubChem BioAssay AID1645881 (National Center for Advancing Translational Sciences (NCATS), 2021).
# The chains behind the UniProt entries cited, without tags or fusion partners.
# UniProt O95398, whole entry: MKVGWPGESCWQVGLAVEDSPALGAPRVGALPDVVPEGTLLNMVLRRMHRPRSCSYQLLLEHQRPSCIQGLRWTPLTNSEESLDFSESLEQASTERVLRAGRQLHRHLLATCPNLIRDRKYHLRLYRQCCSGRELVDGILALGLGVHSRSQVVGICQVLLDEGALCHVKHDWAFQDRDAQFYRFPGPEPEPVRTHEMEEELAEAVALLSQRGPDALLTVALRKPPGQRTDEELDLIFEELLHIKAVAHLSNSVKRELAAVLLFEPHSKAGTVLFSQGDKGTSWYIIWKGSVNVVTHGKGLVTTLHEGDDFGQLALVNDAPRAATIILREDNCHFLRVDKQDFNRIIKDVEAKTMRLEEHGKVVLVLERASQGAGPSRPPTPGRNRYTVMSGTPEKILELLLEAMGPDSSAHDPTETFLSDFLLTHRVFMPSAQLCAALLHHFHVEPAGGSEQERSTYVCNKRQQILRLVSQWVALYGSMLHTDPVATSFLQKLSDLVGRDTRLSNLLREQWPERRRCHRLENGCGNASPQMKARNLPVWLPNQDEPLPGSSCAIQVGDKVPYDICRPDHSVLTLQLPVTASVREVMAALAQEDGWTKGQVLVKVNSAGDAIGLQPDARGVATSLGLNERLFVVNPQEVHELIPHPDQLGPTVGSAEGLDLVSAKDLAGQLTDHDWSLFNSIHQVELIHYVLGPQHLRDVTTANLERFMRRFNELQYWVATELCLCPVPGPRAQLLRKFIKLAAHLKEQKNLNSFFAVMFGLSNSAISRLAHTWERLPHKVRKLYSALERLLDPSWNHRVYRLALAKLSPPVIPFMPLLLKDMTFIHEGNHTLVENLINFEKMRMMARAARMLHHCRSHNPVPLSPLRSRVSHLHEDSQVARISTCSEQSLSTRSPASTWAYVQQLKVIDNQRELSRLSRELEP
# The entries are a selection whose mix differs from that of the whole data set. Inconclusive results are not listed. Active and inactive are the calls of the source. The call rests on the fitted dose curve; in most records, active means well fitted activation curve with a large enough effect; inconclusive means small, poorly fitted or top-dose-only effect; inactive means no such curve, though single readings can be large or run the other way.
# Target: Rap guanine nucleotide exchange factor 3 (Homo sapiens) (UniProt O95398)
# Experiment: Confirmatory qHTS for agonist of cAMP-regulated guanine nucleotide exchange factor 3 (EPAC1);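 further: EPAC1 catalysed release of BODIPY-GDP from Rap1B seen as fluorescence loss; nearly all actives have a fitted effect of over 75% in size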
# Conditions: EPAC1 Rap1B BODIPY-GDP exchange fluorescence, 100% = cAMP control response; at 154 µM (top of the series)
row,SMILES,activation
1,CCCCn1nnnc1C(c1cc2ccccc2o1)N1CCC(n2c(=O)[nH]c3ccccc32)CC1 (stereo not drawn),inactive: 4.57%
2,O=c1[nH]c2ccccc2n1C1CCN(C(c2ccccc2OC(F)(F)F)c2nnnn2C2CCCC2)CC1 (stereo not drawn),inactive: -14.7%
3,CCC(c1nnnn1C(C)(C)C)N1CCC(n2c(=O)[nH]c3ccccc32)CC1 (stereo not drawn),inactive: -9.96%
